# Yeast mating assay 2: variants of the scFv Ab-91

Source: Engelhart et al. 2022 (doi:10.1038/s41597-022-01779-4), MIT Lincoln Laboratory and A-Alpha Bio; data file from the FLAb repository.

The target is the same throughout: PDVDLGDISGINAS, from the HR2 region of SARS-CoV-2 spike.

Ab-91 is the parent antibody, in scFv form: VL, then a 15-residue (Gly4Ser)3 linker, then VH. The light chain is unchanged in all variants.
VL: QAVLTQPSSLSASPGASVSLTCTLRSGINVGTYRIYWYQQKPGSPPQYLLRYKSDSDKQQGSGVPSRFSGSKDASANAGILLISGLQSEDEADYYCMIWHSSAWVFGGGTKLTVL
VH: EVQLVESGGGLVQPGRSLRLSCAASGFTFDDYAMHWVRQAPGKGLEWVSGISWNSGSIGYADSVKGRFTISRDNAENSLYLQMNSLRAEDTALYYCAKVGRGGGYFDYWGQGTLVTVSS

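Phage display of a naive human antibody library on the peptide gave the parent. AAYL51 was designed without a model: most single CDR substitutions and a random sample of double and triple ones. In AlphaSeq, yeast of one mating type display the scFv and yeast of the other type display the target. After mating in shaken culture at 30 °C for 16 h, diploids were selected and their barcode pairs sequenced. Read counts were normalised to the haploid input and turned into Kd by a linear fit to BCL2-family pairs of known affinity, for each replicate. Each pool was mated in three replicate cultures.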

Each variant is given by its three heavy chain CDRs, as the data file delimits them; those of the parent are GFTFDDYAMH, GISWNSGSIGYADSVK, VGRGGGYFDY. Values are log10 of the apparent Kd in nM; lower means stronger binding. An entry "nd" has no value in the source: the pair was not observed among the diploids in that replicate. This suggests poor binding but is not conclusive. In this assay the parent's reference entry averaged 1.86; its copy inside this library read 0.88. Three control strains display no target. For library AAYL51, 21% of the pairings with them gave a signal, with a median of 4.54 and one signal in twenty below 3.26, so weak values seen in few replicates may be background. Also given: how often the same scFv was detected with the empty control strains, with their mean in brackets.

CDR-H1	CDR-H2	CDR-H3	log10 Kd (nM) by replicate	signal with controls
GFTFDDYAMH	GISINSGSIGYAAQVK	VGRGGGYFDY	5.68 / 3.60 / nd	3/9 (4.69)
IFTFDDYAMH	GISWNSGSIGYADSVK	VGHGGGWFDY	nd / nd / nd	0/9
GYTFDDYAMH	GVSWNVGSIGYADSVK	VGRGGGYFDY	4.71 / nd / nd	2/9 (4.72)
GETFDDYAAH	GISWNSGSIGYADSVK	QGRGGGYFDY	4.90 / 5.55 / 5.31	6/9 (4.34)
GFTFDDYAMH	GIYWNSGSIGYADSNK	CGRGGGYFDY	5.36 / nd / nd	5/9 (5.27)
GFTFDDYAMM	GISWNSGSIGEADSVK	VGRGLGYFDY	5.78 / nd / nd	6/9 (4.82)
GFTFDDYAMH	GISWNNGSIGYPDSVK	VGRGGGYFDY	4.96 / 4.36 / 5.75	4/9 (4.59)
GFTIDDYAMH	DISWNSGSIGYADSVK	VGRGGGYFEY	nd / nd / 4.18	4/9 (4.76)
GFTNDDYAMH	GISWNSGSIGYADSVK	VGRGHGRFDY	5.03 / 4.83 / nd	5/9 (5.30)
GFTFDDYAMH	GISWNNGSIGYADSVK	VERGGGYFDY	4.88 / nd / 6.07	6/9 (5.38)
GFTFHDYAMH	GISWNSGSIWYADSVK	VGRGGGWFDY	4.01 / nd / nd	3/9 (3.96)
GFTFKDYAMH	GNSWNSGSIGYADSVK	VGRGGGYFDY	nd / nd / nd	1/9 (4.74)
GFTFDDYAMH	GISWNKGSICYADSVK	VGRGGGYFCY	nd / nd / nd	0/9
GVMFDDYAMH	GISWNSGSIGYADSVK	FGRGGGYFDY	nd / nd / nd	0/9
GLTWDDYAMH	GISWNSGSIGYAASVK	VGRGGGYFDY	nd / nd / nd	0/9
GFVFDDNAMH	GISWNSGSIGYADSVQ	VGRGGGYFDY	2.68 / 2.63 / 2.36	6/9 (4.59)
GFTFDDYAYH	GISWNSGSIGYADSVK	VRRGGRYFDY	4.39 / nd / nd	3/9 (4.29)
GFTTDDYAMH	GISWNSGRIGYADEVK	VGRGGGYFDY	nd / nd / nd	0/9
GFTWDDYSMH	GISWNKGSIGYADSVK	VGRGGGYFDY	nd / nd / nd	0/9
GFTHDDYAMH	GASWNSPSIGYADSVK	VGRGGGYFDY	4.71 / 4.48 / nd	6/9 (5.05)
GFTFDDYAMH	GISWNSHSIGYADSVK	TGLGGGYFDY	nd / nd / nd	0/9
GFTFDDYAMH	GISWNSGSIVYADSVA	VGRGTGYFDY	4.13 / 5.17 / 5.64	6/9 (5.17)
GFTFDDSPMH	GISWNSGSIAYADSVK	VGRGGGYFDY	nd / nd / nd	0/9
GFTFDDYAMH	GISWNSGSIGYADSVK	MGRGGGYFHY	nd / nd / 4.71	2/9 (4.37)
GFTFDDYAMH	GTSWNSGSEGYADSVK	VGRGGGYFWY	nd / nd / nd	0/9
GFTFDDYAMH	GISWKVGSIGYADVVK	VGRGGGYFDY	5.13 / 5.75 / 3.76	6/9 (4.16)
GFTFDDYAMH	IIHWNSGSIGIADSVK	VGRGGGYFDY	4.64 / 3.96 / nd	1/9 (4.89)
GFLFDDYAGH	GISVNSGSIGYADSVK	VGRGGGYFDY	nd / nd / nd	1/9 (4.00)
GCTFDYYAMH	GISWNSGSIGYADSVW	VGRGGGYFDY	nd / nd / nd	1/9 (4.13)
GFTFDDGAMH	GISWNSGSIDYADIVK	VGRGGGYFDY	nd / 5.21 / nd	3/9 (4.06)
GFTFDDYAMH	GILWNSGSIRYADSVK	VGRGGGYFDL	3.69 / nd / nd	0/9
GFTFDDYAMH	DISWNSGSIGYWDSVK	VGRGGGYFFY	4.64 / nd / 4.83	2/9 (5.04)
EFTFDDYAMH	GISWNSGSCGYADSVK	VGRGGGYFTY	nd / nd / nd	0/9
GFTFDDYAMH	GISWNSGSIHYADSVW	VGRGGGYFNY	nd / nd / nd	0/9
GFTFDDYAMV	GISWNSGSIGYADSVK	GGRGGGYFLY	nd / nd / nd	0/9
GFTFDDYAMH	GISWMSGSIGPADSVK	RGRGGGYFDY	nd / nd / nd	0/9
GFSFDLYAMH	GISWNSGSIGYADSVK	VGRGGGYADY	5.16 / 4.87 / nd	3/9 (4.49)

Repeated from above, the 5 best binders with a signal in all replicates:

CDR-H1	CDR-H2	CDR-H3	log10 Kd (nM) by replicate	signal with controls
GFVFDDNAMH	GISWNSGSIGYADSVQ	VGRGGGYFDY	2.68 / 2.63 / 2.36	6/9 (4.59)
GFTFDDYAMH	GISWKVGSIGYADVVK	VGRGGGYFDY	5.13 / 5.75 / 3.76	6/9 (4.16)
GFTFDDYAMH	GISWNSGSIVYADSVA	VGRGTGYFDY	4.13 / 5.17 / 5.64	6/9 (5.17)
GFTFDDYAMH	GISWNNGSIGYPDSVK	VGRGGGYFDY	4.96 / 4.36 / 5.75	4/9 (4.59)
GETFDDYAAH	GISWNSGSIGYADSVK	QGRGGGYFDY	4.90 / 5.55 / 5.31	6/9 (4.34)